# Measured values: ChEMBL document CHEMBL4834416, “The Discovery of Novel ACA Derivatives as Specific TRPM2 Inhibitors that Reduce Ischemic Injury Both In Vitro and In Vivo” (J Med Chem, 2021)
# Sequences of proteins named here, by UniProt entry; tags and fusion partners are left off.
# UniProt O94759, whole entry: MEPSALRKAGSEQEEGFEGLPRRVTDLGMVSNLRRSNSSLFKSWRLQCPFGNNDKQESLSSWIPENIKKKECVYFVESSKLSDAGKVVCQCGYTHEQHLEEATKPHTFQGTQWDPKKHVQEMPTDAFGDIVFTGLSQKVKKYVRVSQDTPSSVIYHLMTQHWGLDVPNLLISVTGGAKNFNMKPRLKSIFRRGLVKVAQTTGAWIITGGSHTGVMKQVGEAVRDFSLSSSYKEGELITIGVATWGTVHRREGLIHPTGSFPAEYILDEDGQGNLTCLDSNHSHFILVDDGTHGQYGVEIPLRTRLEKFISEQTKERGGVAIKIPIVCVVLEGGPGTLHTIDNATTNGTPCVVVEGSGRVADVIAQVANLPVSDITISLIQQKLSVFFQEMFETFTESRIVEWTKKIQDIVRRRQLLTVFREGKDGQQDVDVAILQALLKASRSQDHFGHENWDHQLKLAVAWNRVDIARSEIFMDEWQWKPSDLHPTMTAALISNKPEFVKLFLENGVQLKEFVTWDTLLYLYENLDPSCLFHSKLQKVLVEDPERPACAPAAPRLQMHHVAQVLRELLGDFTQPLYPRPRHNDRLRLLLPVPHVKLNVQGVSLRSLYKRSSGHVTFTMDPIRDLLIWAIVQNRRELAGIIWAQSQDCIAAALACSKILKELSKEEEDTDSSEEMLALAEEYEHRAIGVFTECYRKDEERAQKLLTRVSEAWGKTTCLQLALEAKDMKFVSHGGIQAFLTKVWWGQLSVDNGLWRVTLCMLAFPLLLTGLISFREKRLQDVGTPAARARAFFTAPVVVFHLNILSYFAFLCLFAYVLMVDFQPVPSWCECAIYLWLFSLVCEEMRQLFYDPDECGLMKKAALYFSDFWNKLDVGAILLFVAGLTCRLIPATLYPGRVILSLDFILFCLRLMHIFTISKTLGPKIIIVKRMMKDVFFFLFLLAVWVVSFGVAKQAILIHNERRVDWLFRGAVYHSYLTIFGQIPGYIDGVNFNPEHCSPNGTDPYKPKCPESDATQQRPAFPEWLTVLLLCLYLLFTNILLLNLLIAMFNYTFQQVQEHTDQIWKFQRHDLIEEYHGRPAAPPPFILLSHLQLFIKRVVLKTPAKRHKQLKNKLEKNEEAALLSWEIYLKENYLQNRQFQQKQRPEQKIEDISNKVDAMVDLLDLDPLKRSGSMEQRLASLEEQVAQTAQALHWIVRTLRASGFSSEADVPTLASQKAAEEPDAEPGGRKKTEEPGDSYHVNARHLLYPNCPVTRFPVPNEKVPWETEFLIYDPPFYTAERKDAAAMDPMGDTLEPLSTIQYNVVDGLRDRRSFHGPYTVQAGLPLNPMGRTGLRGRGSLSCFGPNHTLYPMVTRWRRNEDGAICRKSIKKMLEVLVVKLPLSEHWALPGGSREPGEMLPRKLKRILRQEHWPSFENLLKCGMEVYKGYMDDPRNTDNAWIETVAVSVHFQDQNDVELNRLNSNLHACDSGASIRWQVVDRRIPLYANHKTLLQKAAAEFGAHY
# Target: Transient receptor potential cation channel subfamily M member 2 (Homo sapiens, UniProt O94759)
# Assay: Inhibition of human TRPM2 expressed in HEK293T cells assessed as blocked of ADPR-activated current by whole cell patch clamp electrophysiology
# Type: cell-based
smiles,measurement,value
NCCOB(c1ccccc1)c1ccccc1,IC50,1200 nM
